Values of other authors, collected in paper PMC7238188, “Recombinant Peptide Production Platform Coupled with Site-Specific Albumin Conjugation Enables a Convenient Production of Long-Acting Therapeutic Peptide” (Pharmaceutics, 2020).

Conditions: in the human body; cited from earlier work
Excerpt: As alternatives to PEGylation, several strategies were developed. First, in order to increase hydrodynamic volumes, therapeutic peptides/proteins were fused to recombinant PEG mimetics such as XTEN and PAS sequences or conjugated to carbohydrates such as hydroxyethyl starch and polysialic acid. Second, in order to evade intracellular degradation via neonatal Fc receptor (FcRn)-mediated recycling, Fc-domain or albumin was fused/conjugated to therapeutic peptides/proteins. Besides, conjugation of fatty acid, an albumin ligand, was also an effective way to extend the serum half-life o ...

human serum albumin [HSA]
half-life: up to 3 weeks
